Test results taken from US20100119412A1, “Novel Chemistries, Solutions, and Dispersal Systems for Decontamination of Chemical and Biological Systems” (published 2010).

Legend:
[1] = cited from earlier work; for Water Solubility: g/100 grams H2O: Group II linear monoprotic alcohols
[2] = cited from earlier work; for pKa: solvent not stated
[3] = pKa values of acids and bases in acetonitrile, DMSO and water; conditions: comparison of the four butanediol isomers

Compound | Water Solubility: g/100 grams H2O [1] | pKa [2] | further results
CC#N |  |  | solubility in water ([1]; stated in words in running text): soluble in water in all proportions
CCCCCO | 2.73 grams/100 |  | 
HClO |  | 7.2 | 
O=[N+]([O-])c1ccc(O)c([N+](=O)[O-])c1 |  |  | pKa in DMSO ([2]; 25° C., solvent DMSO (Group III), for bases, pKa of BH+): 5.1; pKa in Acetonitrile ([2]; 25° C., solvent acetonitrile (Group I), for bases, pKa of BH+): 16.7
hydrogen superoxide |  | 4.88 | 
HClO4 |  | strong acid | 
HClO2 |  | 2 | 
CCCCCCCO | 0.174 grams/100 |  | 
HClO3 |  | -1 | 
CCCCCCCCO | insoluble |  | 
CCO | infinitely soluble |  | 
CC(O)CCO (centres unmarked) |  |  | pKa values of the oxygens relative to other butanediol isomers [3]: higher pKa values compared to the other butanediol isomers
CCCO | infinitely soluble |  | 
